Results on three compounds are retold here after ChEMBL document CHEMBL5154699 (Eur J Med Chem, 2022).

By UniProt entry, the sequences of proteins in these tests, tags left out.
UniProt P97266, whole entry: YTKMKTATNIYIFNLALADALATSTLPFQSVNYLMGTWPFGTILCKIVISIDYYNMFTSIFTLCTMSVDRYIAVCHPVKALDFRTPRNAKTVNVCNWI
UniProt P33533, whole entry: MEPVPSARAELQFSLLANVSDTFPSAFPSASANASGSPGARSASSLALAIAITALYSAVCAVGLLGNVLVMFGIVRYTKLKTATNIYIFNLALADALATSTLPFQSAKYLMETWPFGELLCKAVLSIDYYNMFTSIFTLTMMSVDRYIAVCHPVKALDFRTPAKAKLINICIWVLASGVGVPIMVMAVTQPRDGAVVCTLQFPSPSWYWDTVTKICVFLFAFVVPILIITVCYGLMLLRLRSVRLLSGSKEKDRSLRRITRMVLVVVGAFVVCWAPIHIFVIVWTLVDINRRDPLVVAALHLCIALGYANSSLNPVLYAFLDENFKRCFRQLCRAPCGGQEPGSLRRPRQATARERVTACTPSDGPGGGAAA

The target in assay [1] is Mu-type opioid receptor (Cavia porcellus) (UniProt P97266). In words: Displacement of [3H]-DAMGO from MOR in guinea pig brain membranes at 1 uM measured by competitive radioligand receptor binding assay relative to control. The following applies: Membrane. (In general: Displacement assays read how much labelled ligand stays bound in the presence of the test substance.)
Assay [2] has as its target Delta-type opioid receptor (Rattus norvegicus) (UniProt P33533). In words: Displacement of [3H]-DPDPE from DOR in rat brain membranes at 1 uM measured by competitive radioligand receptor binding assay relative to control. The following applies: Membrane.

On to `O=C(Cc1ccc(Cl)c(Cl)c1)N1CC[C@@H]2CC[C@H](N3CCCC3)[C@H]1C2`, for which the Activity in assay [1] and in assay [2] was 0% throughout.

For `O=C(Cc1ccc(Cl)c(Cl)c1)N1CC[C@H]2CC[C@@H](N3CCCC3)[C@@H]1C2`, the Activity in assay [1] was 7%; in assay [2] it was 0%.

Take `CN(C)[C@@H]1CCC2CCN(C(=O)Cc3ccc(Cl)c(Cl)c3)C1C2` (mixture of isomers): in assay [1], the Activity was found to be 0%.
